# What was measured:
# [1] = test system: adult male Sprague—Dawley rats; experiment: Radiant heat tail-flick (TF) antinociception assay; type: in vivo, rat; conditions: fentanyl 75 μg/kg IV after GSHee 100 μmol/kg IV; versus vehicle-pretreated
# [2] = test system: adult male Sprague—Dawley rats; experiment: Arterial blood gas measurements and A-a gradient; type: in vivo, rat; conditions: fentanyl 75 μg/kg IV in GSHee (100 μmol/kg IV)-pretreated rats; versus vehicle
# [3] = test system: adult male Sprague—Dawley rats; experiment: Body temperature (BT), rectal thermistor probe; conditions: for Body temperature, Post-fentanyl: GSHee 100 μmol/kg IV-treated rats; for Body temperature, Change from Pre: GSHee-treated rats
# [4] = test system: adult male Sprague—Dawley rats; experiment: Righting reflex (duration of fentanyl-induced impairment)
# [5] = 5 min after fentanyl 75 μg/kg IV
# [6] = 10 min after fentanyl 75 μg/kg IV
# [7] = 15 min after fentanyl 75 μg/kg IV
# [8] = 20 min after fentanyl 75 μg/kg IV
# [9] = 25 min after fentanyl 75 μg/kg IV
# [10] = 30 min after fentanyl 75 μg/kg IV
substance,measurement,setting,value
L-glutathione ethyl ester,duration of the fentanyl-induced antinociception,[1],greater in GSHee-pretreated rats than in the vehicle-pretreated rats
same,fentanyl-induced changes in ABG chemistry and A-a gradient,[2],markedly smaller in magnitude and of substantially shorter duration
same,"Body temperature, Post-fentanyl",[3]; [5],37.9 ± 0.1
same,"Body temperature, Change from Pre",[3]; [5],0.06 ± 0.09 °C
same,"Body temperature, Post-fentanyl",[3]; [6],38.0 ± 0.1
same,"Body temperature, Change from Pre",[3]; [6],0.17 ± 0.11 °C
same,"Body temperature, Post-fentanyl",[3]; [7],38.0 ± 0.1
same,"Body temperature, Change from Pre",[3]; [7],0.13 ± 0.10 °C
same,"Body temperature, Post-fentanyl",[3]; [8],38.2 ± 0.1
same,"Body temperature, Change from Pre",[3]; [8],0.31 ± 0.09 °C
same,"Body temperature, Post-fentanyl",[3]; [9],38.2 ± 0.1
same,"Body temperature, Change from Pre",[3]; [9],0.33 ± 0.10 °C
same,"Body temperature, Post-fentanyl",[3]; [10],38.2 ± 0.1
same,"Body temperature, Change from Pre",[3]; [10],0.31 ± 0.08 °C
same,duration of the pronounced sedation elicited by fentanyl,[4]; GSHee-treated versus vehicle-treated rats,very similar
same,full return of the righting-reflex,"[4]; fentanyl 75 μg/kg IV in GSHee (100 μmol/kg, IV)-treated rats, n=12",54 ± 9 min

# Reference: US12011428B2, “Compositions and methods for stimulating ventilatory and/or respiratory drive” (priority 2022, dated 2024)
